Chains of the proteins cited; added tags and fusions are not shown. Lines headed by an entry give the natural chain unless they say otherwise; changes in a name come on top.
UniProt P28335: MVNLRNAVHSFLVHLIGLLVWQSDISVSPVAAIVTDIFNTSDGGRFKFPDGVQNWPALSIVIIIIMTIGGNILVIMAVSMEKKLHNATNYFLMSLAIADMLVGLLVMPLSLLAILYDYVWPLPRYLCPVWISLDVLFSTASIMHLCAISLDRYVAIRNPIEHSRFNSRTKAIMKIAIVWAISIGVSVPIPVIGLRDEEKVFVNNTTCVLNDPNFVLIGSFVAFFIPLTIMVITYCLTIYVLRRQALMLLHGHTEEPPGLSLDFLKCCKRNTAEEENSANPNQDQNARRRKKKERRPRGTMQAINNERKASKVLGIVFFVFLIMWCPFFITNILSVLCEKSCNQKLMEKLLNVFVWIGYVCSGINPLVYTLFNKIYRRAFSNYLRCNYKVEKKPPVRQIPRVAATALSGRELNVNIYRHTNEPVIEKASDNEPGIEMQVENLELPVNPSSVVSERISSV

In BindingDB's records for doi:10.1016/0166-4328(96)00087-3 (Smithkline Beecham Pharmaceuticals, 1996):

Biological target: 5-hydroxytryptamine receptor 2C (Homo sapiens, UniProt P28335)

Cc1cc(NC(=O)Nc2ccc3c(ccn3C)c2)sn1 [CAS_3277600]
Ki: 1000 nM
